# Test results from PubChem BioAssay AID1486 (The Scripps Research Institute Molecular Screening Center, 2009).
# The list shows a part of the results, in another mix than the full data. Some of these compounds have results that are not shown, active ones among them. Activity calls are given as the source filed them.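 Rule for the calls: active = inhibition above a per-campaign cutoff, the mean inhibition of all tested compounds plus 3 SD (cut at about 27% in these data); inactive = the rest.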
# Test: parental Ba/F3 cell viability inhibition, counter-screen for JAK2V617F inhibitor project, murine pro-B, CellTiter-Glo luminescence (AID 1486);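 note: 0% = DMSO wells and 100% = JAK Inhibitor I control wells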
# Conditions: CellTiter-Glo ATP luminescence, at 5.6 µM, hits give high values
row,Compound,inhibition
1,COc1ccc(Br)c(C(=O)NCC2(N3CCCCC3)CCCCC2)c1,inactive: -0.52%
2,CN(C)c1cccc(C(=O)NCC2(N(C)C)CCCCC2)c1,inactive: 2.29%
3,O=C(OC1CN2CCC1CC2)C(CO)(c1ccccc1)c1ccccc1 (stereo unspecified),inactive: 0.57%
4,COc1cccc(C(=O)NCC2(N3CCCCC3)CCCCC2)c1,inactive: -3.1%
5,C=CCN1CCN(CCOC(=O)C(O)(c2ccccc2)c2ccccc2)CC1,inactive: 5.36%
6,CCN1CCCC(OC(=O)C2(O)c3ccccc3C=Cc3ccccc32)C1 (stereo unspecified),inactive: 3.45%
7,Cc1ccccc1C(=O)NCC1(N2CCCCC2)CCCCC1,inactive: 4.82%
8,CN(C)C1CCCC1OC(=O)C(O)(c1ccccc1)c1ccccc1 (stereo unspecified),inactive: 4.6%
9,CCN(CC)CC(C)C(C)OC(=O)C(O)(c1ccccc1)c1ccccc1 (stereo unspecified),inactive: 3.34%
10,CC(C)N1C(=O)CC2(CCN(CCOC(=O)C(O)(c3ccccc3)c3ccccc3)CC2)C1=O,inactive: 3.22%
11,O=C(NCC1(N2CCCCC2)CCCCC1)c1cc([N+](=O)[O-])ccc1Cl,inactive: 7.93%
